{"source": "paper PMC3576842", "about": "(Cancer discovery, 2012)", "tested_on": "NCI-H1975 tumor xenografts (EGFR L858R/T790M)", "test": "NCI-H1975 xenograft study", "settings": "daily for 3 days; PKC412 100 or 200 mg/kg, gefitinib 100 mg/kg", "data": [{"smiles": "COc1cc2ncnc(Nc3ccc(F)c(Cl)c3)c2cc1OCCCN1CCOCC1", "note": "[gefitinib]", "values": [{"measurement": "suppression of phospho-EGFR and phospho-AKT in tumors", "result": "failed to inhibit EGFR signaling"}]}]}
